Data set [1] concerns platelet-depleted mice. It counts as in vivo. The text has this: Bronchoalveolar lavage further retrieved gross blood from mouse lungs that contained abundant hemoglobin (FIG. 6F).
Thus, normal and platelet-depleted mice were challenged intranasally with synthetic candidalysin, which alone is sufficient to induce allergic airway disease (FIG. 8). […] Candidalysin induced more than a 2-fold increase in plasma Dkk-1 in platelet sham-depleted mice but had no effect on plasma Dkk-1 in mice almost entirely deficient in circulating platelets (FIG. 11H).
Wildtype mice were give 2 μg/g of platelet depleting antibody intraperitoneally (R300, Emfret Analytics, Wurzburg, Germany) as described (Lam et al., 2011). Depletion of platelets from mice in the allergic airway disease model was carried out with intraperitoneal injection of the antibody with each intranasal challenge, 8 times over 2 weeks as described above.

In data set [2] the test system is host cells. The following applies: Moyes et al., 2016; cited from earlier work.
The subject of data set [3] is Human platelets. Put plainly: Platelet activation and binding to candidalysin (flow cytometry). Conditions: acute activation; 10 or 20 μM. The format is cell-based. The method, then:
Platelets (1×10^9/mL) were pretreated with anti-GP1bα (Clone AK2 at 10 μg/mL, Invitrogen, Carlsbad, CA) or A1A2A3 von Willebrand factor tridomain protein for 1 h at room temperature and then incubated with untagged, Alexafluor-647-tagged candidalysin (10 or 20 μM), or scrambled peptide control for 1 h at room temperature. Activation was assessed by CD62P upregulation (304910, Biolegend, San Diego, CA) and AF-647-candidalysin binding to platelets was assessed by flow cytometry (Nagy Jr et al., 2013).
Alternatively, platelets were treated with biotinylated candidalysin (10 or 20 μM) or scrambled peptide control (20 μM) for 1 hour, washed with CGS buffer, and stained using ALEXA FLUOR® 647-tagged streptavidin for 30 minutes.
A general note: In flow cytometry, cells or beads pass a laser one at a time.

SMILES strings stand for the structures.

`CC[C@H](C)[C@H](NC(=O)CNC(=O)[C@H](CCSC)NC(=O)[C@@H](NC(=O)[C@@H](NC(=O)CNC(=O)[C@@H](NC(=O)[C@@H](NC(=O)[C@@H](N)CO)[C@@H](C)CC)[C@@H](C)CC)[C@@H](C)CC)[C@@H](C)CC)C(=O)N[C@@H](CC(C)C)C(=O)NCC(=O)N[C@@H](CC(N)=O)C(=O)N[C@H](C(=O)N1CCC[C@H]1C(=O)N[C@@H](CCC(N)=O)C(=O)N[C@H](C(=O)N[C@H](C(=O)N[C@@H](CCC(N)=O)C(=O)N[C@H](C(=O)N[C@H](C(=O)N[C@@H](CCSC)C(=O)N[C@@H](CO)C(=O)N[C@H](C(=O)N[C@H](C(=O)N[C@@H](CCCCN)C(=O)N[C@@H](C)C(=O)N[C@@H](Cc1ccccc1)C(=O)N[C@@H](CCCCN)C(=O)NCC(=O)N[C@@H](CC(N)=O)C(=O)N[C@@H](CCCCN)C(=O)O)C(C)C)[C@@H](C)CC)[C@@H](C)CC)[C@@H](C)CC)[C@@H](C)CC)C(C)C)[C@@H](C)CC` [candidalysin]: the “adverse events in thrombocytopenic mice” value in data set [1] (repeated candidalysin challenge, data not shown) is “epistaxis and one died”. In addition, the mortality or illness result in data set [1] (single challenge into airways of platelet-depleted mice) was “no mortality or apparent illness”. Moreover, in data set [2], the “concentrations at which candidalysin acutely induces lysis of host cells” value is reported as “above 20 μM”. In addition, the platelet lysis result in data set [3] is “without inducing lysis”.
